Experimental data as given in US20080234226A1, “Use Of Iron(III) Complex Compounds For The Preparation Of A Medicament For Oral Treatment Of Iron Deficiency States In Patients With Chronic Inflammatory Bowel Disease” (VIFOR (INTERNATIONAL) AG, priority 2005, published 2008).

Tested on: patients with chronic inflammatory bowel disease
Assay: Markers of oxidative stress (plasma, urine) before and after 14 days oral iron therapy
Settings: mean (SEM)

- P-cysteine (after 14 days oral treatment): 209 (11) μmol/l
- P-vitamin C (after 14 days oral treatment): 54.5 (5.5) μmol/l
- P-cysteine (before treatment): 211 (11) μmol/l
- P-vitamin C (before treatment): 61.3 (5.1) μmol/l
Substance: iron(III)-polymaltose complex
